Experimental data taken from PubChem BioAssay AID743287 (Broad Institute, 2014).
Only a part is listed here, and it is no random draw. Activity calls are given as the source filed them.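 Rule for the calls: active = lowest replicate activation of at least 40%, so every replicate reaches that level; inactive = the rest.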

experiment: primary screen for activators of insulin secretion dependent on glucose, INS-1E cells, GLuc reporter luminescence (AID 743287); settings: INS-1E GLuc reporter insulin secretion, 2-3 h, at 16.6 µM, hits give high values;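 note: 0% = median of neutral control wells and 100% = median of IBMX positive control wells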

SMILES | activation
CSc1ccccc1C(=O)NCC1(N2CCCCC2)CCCCC1 | inactive: 9.25%
Cc1cccc(NC2(C#N)CCN(Cc3ccccc3)CC2)c1 | inactive: 7.53%
O=C(NCC1(N2CCCCC2)CCCCC1)c1ccc(=O)[nH]c1 | inactive: -4.65%
CCCCn1nnnc1C(c1cccs1)N1CCC(n2c(=O)[nH]c3ccccc32)CC1 (stereo not given) | inactive: -9.81%
CCCCn1nnnc1C(CC)N1CCC(n2c(=O)[nH]c3ccccc32)CC1 (stereo not given) | inactive: -25.8%
O=C(NCC1(N2CCCCC2)CCCCC1)c1cccs1 | inactive: 6.24%
COc1ccc(C(=O)NCC2(N3CCCCC3)CCCCC2)cc1 | inactive: 5.18%
CCC(c1nnnn1C1CCCC1)N1CCC(n2c(=O)[nH]c3ccccc32)CC1 (stereo not given) | inactive: -27.9%
COc1ccc(C(=O)NCC2(N3CCCCC3)CCCCC2)c(OC)c1OC | inactive: 0.189%
CC(C)(C)OC(=O)N1CCC(N(C(=O)c2ccccc2)c2ccc(F)cc2)CC1 | inactive: -14.1%
CCOC(=O)N1CCC(Nc2ccc(OC)cc2)CC1 | inactive: -4.08%
CCCCn1nnnc1C(c1ccc(OC)cc1)N1CCC(n2c(=O)[nH]c3ccccc32)CC1 (stereo not given) | inactive: -17.7%
O=c1[nH]c2ccccc2n1C1CCN(C(c2cc3ccccc3o2)c2nnnn2C2CCCCC2)CC1 (stereo not given) | inactive: -9.36%
O=C(OC1CN2CCC1CC2)C1c2ccccc2Oc2ccccc21 (stereo not given) | inactive: 2%
O=C(NCC1(N2CCCCC2)CCCCC1)c1ccc(Cl)s1 | inactive: 18.8%
N#CC1(Nc2ccccc2)CCN(Cc2ccccc2)CC1 | inactive: -10.3%
COc1ccc(Cl)cc1C(=O)NCC1(N2CCOCC2)CCCCC1 | inactive: 11.9%
O=c1[nH]c2ccccc2n1C1CCN(C(c2ccccc2OC(F)(F)F)c2nnnn2C2CCCCC2)CC1 (stereo not given) | inactive: -6.34%
O=C(NCC1(N2CCCCC2)CCCCC1)c1ccc(Cl)nc1 | inactive: 0.011%
Cc1cc(C)cc(N(C(=O)c2ccccc2)C2CCN(C(=O)OC(C)(C)C)CC2)c1 | inactive: -28.9%
O=C(NCC1(N2CCCCC2)CCCCC1)c1ccc(F)cc1 | inactive: 0.163%
CCCCOc1ccc(C(=O)NCC2(N3CCOCC3)CCCCC2)cc1 | inactive: -14.7%
CCCCn1nnnc1C(c1cc2ccccc2o1)N1CCC(n2c(=O)[nH]c3ccccc32)CC1 (stereo not given) | inactive: -11.3%
O=P1(N(CCCl)CCCl)SCCCS1 | inactive: 4.62%

SMILES | activation
CCOC(=O)N1CCC(Nc2ccc(F)cc2)CC1 | inactive: 3.59%
CC(C)(C)n1nnnc1C(c1ccccc1)N1CCC(n2c(=O)[nH]c3ccccc32)CC1 (stereo not given) | inactive: -4.34%
O=c1[nH]c2ccccc2n1C1CCN(C(c2cccc3ccccc23)c2nnnn2C2CCCC2)CC1 (stereo not given) | inactive: -28.8%
COc1cc(C(=O)NCC2(N(C)C)CCCCC2)ccc1OC(F)F | inactive: -8.49%
O=c1[nH]c2ccccc2n1C1CCN(C(c2ccccc2)c2nnnn2C2CCCCC2)CC1 (stereo not given) | inactive: -25.4%
O=C(NCC1(N2CCCCC2)CCCCC1)c1cccc([N+](=O)[O-])c1 | inactive: 0.47%
CSc1ccc(C(=O)NCC2(N3CCOCC3)CCCCC2)cc1 | inactive: -1.33%
CCN1CCC(Nc2ccc(Cl)cc2)CC1 | inactive: -11.9%
O=c1[nH]c2ccccc2n1C1CCN(C(c2ccccc2OC(F)(F)F)c2nnnn2C2CCCC2)CC1 (stereo not given) | inactive: -21.6%
CC(C)(C)n1nnnc1C(c1ccccc1OC(F)(F)F)N1CCC(n2c(=O)[nH]c3ccccc32)CC1 (stereo not given) | inactive: -20.8%
O=C(NCC1(N2CCCCC2)CCCCC1)c1ccc(OC(F)F)cc1 | inactive: -8.6%
CCCCn1nnnc1C(c1cccc2ccccc12)N1CCC(n2c(=O)[nH]c3ccccc32)CC1 (stereo not given) | inactive: -32.4%
COc1ccc(NC2CCN(C(=O)OC(C)(C)C)CC2)cc1 | inactive: -8.42%
CC(C)c1ccc(C(=O)NCC2(N3CCOCC3)CCCCC2)cc1 | inactive: 26.3%
CN1CCN(CCOC(=O)C(O)(c2ccccc2)c2ccccc2)CC1 | inactive: 11%
O=C(NCC1(N2CCOCC2)CCCCC1)c1cc(=O)[nH]c2ccccc12 | inactive: 3.42%
COc1cc(C(=O)NCC2(N3CCCCC3)CCCCC2)ccc1OC(F)F | inactive: -1.19%
O=C(NCC1(N2CCCCC2)CCCCC1)c1cccc(C(F)(F)F)c1 | inactive: 28.7%
CCCCn1nnnc1C(c1ccnc2ccccc12)N1CCC(n2c(=O)[nH]c3ccccc32)CC1 (stereo not given) | inactive: -4.08%
COc1cc(OC)c(C(=O)NCC2(N(C)C)CCCCC2)cc1OC | inactive: -3.65%
O=C(NCC1(N2CCOCC2)CCCCC1)c1cc(F)c(F)cc1Cl | inactive: -1.84%
CCC(c1nnnn1C(C)(C)C)N1CCC(n2c(=O)[nH]c3ccccc32)CC1 (stereo not given) | inactive: -15%
CN(C)c1cccc(C(=O)NCC2(N3CCCCC3)CCCCC2)c1 | inactive: -8.91%
CC(C)c1ccc(NC2CCN(C(=O)OC(C)(C)C)CC2)cc1 | inactive: -48%

SMILES | activation
Cc1ccc(C(=O)NCC2(N(C)C)CCCCC2)o1 | inactive: -2.68%
CCCOc1ccc(C(=O)NCC2(N(C)C)CCCCC2)cc1OC | inactive: 18.9%
COc1ccc(C(c2nnnn2C2CCCC2)N2CCC(n3c(=O)[nH]c4ccccc43)CC2)cc1 (stereo not given) | inactive: -16.4%
O=C(NCC1(N2CCCCC2)CCCCC1)c1cncc(Br)c1 | inactive: -9.19%
CN1CCC(Nc2cccc(F)c2)CC1 | inactive: 0.998%
COc1ccc(C(=O)NCC2(N3CCOCC3)CCCCC2)cc1OC | inactive: 7.3%
O=c1[nH]c2ccccc2n1C1CCN(C(c2ccnc3ccccc23)c2nnnn2C2CCCC2)CC1 (stereo not given) | inactive: -7.32%
O=c1[nH]c2ccccc2n1C1CCN(C(c2cccs2)c2nnnn2C2CCCCC2)CC1 (stereo not given) | inactive: -8.15%
CCCCn1nnnc1C(c1ccccc1)N1CCC(n2c(=O)[nH]c3ccccc32)CC1 (stereo not given) | inactive: -20.1%
COc1cc(C(=O)NCC2(N3CCOCC3)CCCCC2)cc(OC)c1C | inactive: -1.36%
CCCCn1nnnc1C(c1cccc(OC)c1OC)N1CCC(n2c(=O)[nH]c3ccccc32)CC1 (stereo not given) | inactive: -13.3%
O=C(OC1CN2CCC1CC2)C1c2ccccc2C=Cc2ccccc21 (stereo not given) | inactive: 16.3%
O=c1[nH]c2ccccc2n1C1CCN(C(c2cccs2)c2nnnn2C2CCCC2)CC1 (stereo not given) | inactive: -15.8%
COc1cccc(C(c2nnnn2C(C)(C)C)N2CCC(n3c(=O)[nH]c4ccccc43)CC2)c1OC (stereo not given) | inactive: -6.94%
CCOC(=O)N1CCC(Nc2ccc(C)cc2)CC1 | inactive: -11%
CC(C)(C)OC(=O)N1CCC(N(C(=O)c2ccccc2)c2ccc(Cl)cc2)CC1 | inactive: -37.7%
N#Cc1ccc(C(=O)NCC2(N3CCCCC3)CCCCC2)cc1 | inactive: 1.15%
CC(C)(C)n1nnnc1C(c1cccc2ccccc12)N1CCC(n2c(=O)[nH]c3ccccc32)CC1 (stereo not given) | inactive: 10.2%
C/C(N)=N\P(=O)(Oc1ccccc1)Oc1ccccc1 | inactive: 2.35%
CCCN1CCC(Nc2cc(OC)cc(OC)c2)CC1 | inactive: -9.75%
O=c1[nH]c2ccccc2n1C1CCN(C(c2ccccc2)c2nnnn2C2CCCC2)CC1 (stereo not given) | inactive: -4.62%
Cc1cc(N(CCCl)CCCl)ccc1C=O | inactive: -0.345%
CN(C)C1(CNC(=O)c2cccc(C#N)c2)CCCCC1 | inactive: 0.239%
Cc1ccc(C(=O)NCC2(N3CCCCC3)CCCCC2)o1 | inactive: 11.1%

SMILES | activation
Fc1ccccc1NC1CCN(Cc2ccccc2)CC1 | inactive: 22.2%
O=c1[nH]c2ccccc2n1C1CCN(C(c2ccnc3ccccc23)c2nnnn2C2CCCCC2)CC1 (stereo not given) | inactive: -19.5%
COc1cc(OC)cc(C(=O)NCC2(N3CCCCC3)CCCCC2)c1 | inactive: 7.34%
CC(=O)N(c1ccccc1)C1CCNCC1 | inactive: -3.86%
COc1cccc(C(c2nnnn2C2CCCCC2)N2CCC(n3c(=O)[nH]c4ccccc43)CC2)c1OC (stereo not given) | inactive: -26.2%
CCC(c1nnnn1C1CCCCC1)N1CCC(n2c(=O)[nH]c3ccccc32)CC1 (stereo not given) | inactive: -18.4%
O=C(NCC1(N2CCCCC2)CCCCC1)c1ccco1 | inactive: 12.1%
Cn1c(=O)[nH]cc(N(CCCl)CCCl)c1=O | inactive: 34.8%
CN(C)c1ccc(C(=O)NCC2(N3CCCCC3)CCCCC2)cc1 | inactive: -6.68%
Cc1ccccc1NC1(C#N)CCN(Cc2ccccc2)CC1 | inactive: 9.95%
CC(C)(C)n1nnnc1C(c1ccnc2ccccc12)N1CCC(n2c(=O)[nH]c3ccccc32)CC1 (stereo not given) | inactive: -28.1%
COc1ccc(C(c2nnnn2C2CCCCC2)N2CCC(n3c(=O)[nH]c4ccccc43)CC2)cc1 (stereo not given) | inactive: 4.6%
CCN1CCC(Nc2cccc(F)c2)CC1 | inactive: 7.44%
CCCOc1ccc(C(=O)NCC2(N(C)C)CCCCC2)cc1 | inactive: -2.88%
O=c1[nH]c2ccccc2n1C1CCN(C(c2cc3ccccc3o2)c2nnnn2C2CCCC2)CC1 (stereo not given) | inactive: 5.45%
CC(C)(C)OC(=O)N1CCC(Nc2ccccc2)CC1 | inactive: -21.5%
NN(c1ccccc1)C1CCN(CCc2ccccc2)CC1 | inactive: -21.1%
O=C(O)C1(Nc2ccccc2)CCN(Cc2ccccc2)CC1 | inactive: -5.87%
CN1CCC(Nc2ccc(F)c(Cl)c2)CC1 | inactive: -7.92%
CN1CCC(Nc2ccc(Cl)cc2)CC1 | inactive: 3.81%
COc1cccc(C(=O)N(c2cc(C)cc(C)c2)C2CCN(C(=O)OC(C)(C)C)CC2)c1 | inactive: -27.1%
COc1cc(OC)cc(C(=O)NCC2(N3CCOCC3)CCCCC2)c1 | inactive: 8.89%
COc1cccc(C(c2nnnn2C2CCCC2)N2CCC(n3c(=O)[nH]c4ccccc43)CC2)c1OC (stereo not given) | inactive: -14.3%
